# Experimental data taken from patent publication US9567345B2, “Pharmaceutically active pyrazolo-triazine derivatives” (LEAD DISCOVERY CENTER GMBH, priority 2012, dated 2017).
# By UniProt entry, the sequences of proteins in these tests, tags left out.
# UniProt P50750, whole entry: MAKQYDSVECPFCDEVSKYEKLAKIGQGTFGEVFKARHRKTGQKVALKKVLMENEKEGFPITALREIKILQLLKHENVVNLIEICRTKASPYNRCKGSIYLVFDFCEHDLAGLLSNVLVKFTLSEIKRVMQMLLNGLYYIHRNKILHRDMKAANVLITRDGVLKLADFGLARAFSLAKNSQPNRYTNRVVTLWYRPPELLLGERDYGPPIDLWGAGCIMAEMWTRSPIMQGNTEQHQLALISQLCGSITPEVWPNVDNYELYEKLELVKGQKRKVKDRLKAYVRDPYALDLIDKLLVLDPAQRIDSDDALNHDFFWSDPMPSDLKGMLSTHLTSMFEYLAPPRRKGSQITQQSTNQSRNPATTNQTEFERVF
# Target: CDK9/Cyclin T1 (Homo sapiens, UniProt P50750)
# Assay: CDK9 Enzymatic Activity Assay (Lance Kinase Activity Assay, FRET)
# Assay type: biochemical
# Settings: selectivity CDK9 vs CDK7, enzymatic IC50 values
# Method: This protocol describes how the Lance Kinase Activity Assay was performed to determine IC50 values of compounds of general formula (I) against CDK/Cyclin complexes. The principle behind this enzymatic assay is based upon the phosphorylation of the Ulight-Peptide Substrat. It is detected by using a specific EU-labeled anti-phospho peptide antibody.
# Binding of an inhibitor to the kinase prevents phosphorylation of the Ulight-MBP Substrat, resulting in a loss of FRET.
# CDK9 Enzymatic Activity Assay
# The compounds of general formula (I) exemplary summarized in Table 1 were diluted from a 10 mM DMSO stock solution 1:10 in a total volume of 15 μl DMSO. This compound predilution was then serial diluted 1:3 over 8 steps in DMSO and briefly spun down. […]
# For positive controls, 2 μl of DMSO working solution were mixed with 6 μl CDK9/cyclin T1/substrate working solution and 2 μl ATP working solution. Positive and negative controls were calculated from at least 8 different wells. […] Plates were mixed in a Teleshaker plate mixer (Beckman Coulter, Brea, Calif., USA) at 2000 rpm for 40 sec, followed by incubation with Detection Buffer for 1 h, and reading. […] IC50 values were determined from the sigmoidal dose response curves with the software Quattro Workflow (Quattro GmbH, Munich, Germany).
compound,measurement,value
"CC(C)(C)c1cnc(CSc2cnc(NC(=O)C3CCNCC3)s2)o1 [SNS-032, reference compound]",multiplicity of the CDK9 activity in terms of the CDK7 activity,even lower than the CDK 7 activity
